Test results reported in ChEMBL document CHEMBL4814076, “Discovery of a Potent and Selective Covalent Inhibitor of Bruton's Tyrosine Kinase with Oral Anti-Inflammatory Activity” (ACS Med Chem Lett, 2021).

Protein sequences, listed by entry. Tags and fused reporters are not part of them. Lines headed by an entry give the natural chain unless they say otherwise; changes in a name come on top.
UniProt Q06187: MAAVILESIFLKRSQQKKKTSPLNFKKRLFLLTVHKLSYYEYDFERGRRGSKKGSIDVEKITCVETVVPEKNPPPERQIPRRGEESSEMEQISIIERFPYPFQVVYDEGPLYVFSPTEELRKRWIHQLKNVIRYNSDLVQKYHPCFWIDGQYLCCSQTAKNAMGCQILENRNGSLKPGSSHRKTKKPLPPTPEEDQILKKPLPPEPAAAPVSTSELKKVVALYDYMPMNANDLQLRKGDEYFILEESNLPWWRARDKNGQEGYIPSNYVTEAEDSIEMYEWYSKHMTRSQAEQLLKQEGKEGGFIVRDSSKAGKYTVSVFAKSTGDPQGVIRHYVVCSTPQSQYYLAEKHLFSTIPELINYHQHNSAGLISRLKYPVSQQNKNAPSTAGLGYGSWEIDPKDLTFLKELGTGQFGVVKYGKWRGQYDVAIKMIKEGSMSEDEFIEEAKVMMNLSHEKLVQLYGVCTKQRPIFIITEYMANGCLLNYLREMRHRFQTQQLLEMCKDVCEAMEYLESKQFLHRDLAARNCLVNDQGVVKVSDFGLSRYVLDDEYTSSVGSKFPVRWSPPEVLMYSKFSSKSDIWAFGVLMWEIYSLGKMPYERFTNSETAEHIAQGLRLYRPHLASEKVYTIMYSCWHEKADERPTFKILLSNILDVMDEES

Tests used:
[1] = biological target: T1, Tyrosine-protein kinase BTK (Homo sapiens, UniProt Q06187); test: Covalent inhibition of recombinant human GST-tagged BTK (2 to 659 end residues) expressed in baculovirus expression system assessed as inactivation constant using NH2-KKKAPFSWYLPEEG as substrate measured every 2 mins for 2 hrs in presence of ATP by microplate reader assay
[2] = biological target: T1, Tyrosine-protein kinase BTK; test: Covalent inhibition of recombinant human GST-tagged BTK (2 to 659 end residues) expressed in baculovirus expression system assessed as Kinact/Ki ratio using NH2-KKKAPFSWYLPEEG as substrate measured every 2 mins for 2 hrs in presence of ATP by microplate reader assay

Row | Compound | Kinact [1] [s⁻¹] | Ratio [2] [M⁻¹ s⁻¹]
1 | C=CC(=O)C[C@@H]1CC[C@@H](NC(=O)c2sc3nccc4c3c2NC(=O)N4c2ccc(Oc3ccccc3)cc2C)C1 | 0.000337 | 28800
2 | C=CC(=O)N1CC[C@@H](NC(=O)c2sc3nccc4c3c2NC(=O)N4c2ccc(Oc3ccccc3)cc2C)C1 | 0.000346 | 12000
3 | C=CC(=O)NCCNC(=O)c1sc2nccc3c2c1NC(=O)N3c1ccc(Oc2ccccc2)cc1C | 0.000407 | 7840
4 | C=CC(=O)N1CCC[C@@H](NC(=O)c2sc3nccc4c3c2NC(=O)N4c2ccc(Oc3ccccc3)cc2Cl)C1 | 0.000376 | 30600
5 | C=CC(=O)N1CC(NC(=O)c2sc3nccc4c3c2NC(=O)N4c2ccc(Oc3ccccc3)cc2C)C1 | 0.000128 | 908
6 | C=CC(=O)N1CCC[C@@H](NC(=O)c2sc3nccc4c3c2NC(=O)N4c2ccc(Oc3ccccc3)cc2F)C1 | 0.000348 | 37800

The next lines start with the values.

Row | Kinact [1] [s⁻¹] | Ratio [2] [M⁻¹ s⁻¹] | Compound
7 | 0.000404 | 2690 | C=CC(=O)N1CCC[C@@H](NC(=O)c2sc3nccc4c3c2NC(=O)N4c2ccc(Oc3ccccc3)cc2C)C1 (stereo in doubt; 16)
8 | 0.00045 | 93600 | C=CC(=O)N1CCC[C@@H](NC(=O)c2sc3nccc4c3c2NC(=O)N4c2ccc(Oc3ccccc3)cc2C)C1 (stereo in doubt; 17)
9 | 0.000304 | 902 | C=CC(=O)N1CCC[C@@H](NC(=O)c2sc3nccc4c3c2NC(=O)N4c2ccc(OC(C)C)cc2C)C1
10 | 0.000302 | 1390 | C=CC(=O)N1CC[C@H](NC(=O)c2sc3nccc4c3c2NC(=O)N4c2ccc(Oc3ccccc3)cc2C)C1
